# Reference: PubChem BioAssay AID1259375 (The Scripps Research Institute Molecular Screening Center, 2018)
# Sequences of proteins named here, by UniProt entry; tags and fusion partners are left off. A change or cut given only in a name is not applied to a line headed by its entry.
# UniProt O75030: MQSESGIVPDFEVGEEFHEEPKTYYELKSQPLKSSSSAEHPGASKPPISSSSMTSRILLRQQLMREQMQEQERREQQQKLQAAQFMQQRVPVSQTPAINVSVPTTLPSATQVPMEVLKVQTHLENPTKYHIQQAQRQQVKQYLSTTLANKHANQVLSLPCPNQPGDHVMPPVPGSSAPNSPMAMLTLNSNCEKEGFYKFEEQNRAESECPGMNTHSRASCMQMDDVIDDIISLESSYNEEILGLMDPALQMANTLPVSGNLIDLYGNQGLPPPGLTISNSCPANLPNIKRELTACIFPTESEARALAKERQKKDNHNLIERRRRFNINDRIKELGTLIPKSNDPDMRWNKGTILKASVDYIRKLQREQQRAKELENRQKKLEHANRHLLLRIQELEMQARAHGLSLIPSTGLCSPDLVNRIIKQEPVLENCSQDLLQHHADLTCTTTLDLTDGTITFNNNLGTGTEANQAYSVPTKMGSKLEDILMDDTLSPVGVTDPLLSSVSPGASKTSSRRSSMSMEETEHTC
# The source made the active and inactive calls. The rule behind the calls is not given here.
# Molecular target: Microphthalmia-associated transcription factor (Homo sapiens) (UniProt O75030)
# Assay: MITF inhibitors by FRET titration, dose response, biochemical, high throughput (AID 1259375);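 note: FRET between CFP-tagged and YFP-tagged MITF protein partners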
# Conditions: FRET biochemical assay, MITF inhibition
compound,measurement,value
CC(C)OP(=O)(OC(C)C)C(=O)c1ccco1,IC50,inactive: > 7.35 µM
